Experimental data reported in PubChem BioAssay AID1345561 (Gulick Lab, Department of Structural Biology, University at …, 2018).
The entries are a selection whose mix differs from that of the whole data set. The source made the active and inactive calls. No rule for the calls is given here.

Test system: Aerobactin synthetase IucA (Klebsiella pneumoniae)
Assay: inhibition of K. pneumoniae IucA enzyme – biochemical, Tocris library, absorbance (AID 1345561);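 also: 100% = enzyme without compound and 0% = no enzyme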
Details: purified IucA enzyme assay, absorbance (OD) read-out; hits give low values;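 tested at 8 µM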

| SMILES | remaining activity |
| --- | --- |
| CN(C(=O)Cc1ccc(Cl)c(Cl)c1)[C@H]1CCCC[C@@H]1N1CCCC1 | inactive: 101% |
| CN(C(=O)Cc1ccc(Cl)c(Cl)c1)[C@@H]1CCCC[C@H]1N1CCCC1 | inactive: 97.1% |
